## Measured affinities in a library of Ab-14 heavy chain variants

The target is the same throughout: PDVDLGDISGINAS, from the HR2 region of SARS-CoV-2 spike.

Parent scFv Ab-14: VH joined to VL by a 15-residue (Gly4Ser)3 linker. Changes lie in the heavy chain CDRs alone.
VH: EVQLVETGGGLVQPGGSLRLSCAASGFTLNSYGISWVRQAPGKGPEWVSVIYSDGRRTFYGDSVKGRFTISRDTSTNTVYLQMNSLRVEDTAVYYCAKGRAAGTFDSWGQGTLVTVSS
VL: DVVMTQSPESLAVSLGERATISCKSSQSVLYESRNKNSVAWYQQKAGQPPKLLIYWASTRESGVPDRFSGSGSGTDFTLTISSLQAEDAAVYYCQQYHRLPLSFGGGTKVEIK

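The parent was found by panning a naive human phage display library on the peptide. This is the validation round: designs drawn from the data on random variants, tested in the same kind of assay. Group labels follow the data file (Ctrl: baseline library sampled from a position-specific scoring matrix, with some repeated check sequences; Rand: our label for a block that the file lists under HC and that is probably the random mutants of the ten best first-round binders; En: ensemble of fine-tuned language models; GP: Gaussian process model; GPLM: also part of the Gaussian process libraries; HC: hill climbing; Gen: genetic algorithm; Gibbs: Gibbs sampling; a sequence that several methods proposed may carry one label only). The assay is AlphaSeq: two haploid yeast populations carry antibody and antigen on their surface. Binding brings cells together so that they mate, and sequencing counts the barcode pairs among the diploids. A regression on co-assayed BCL2-family reference pairs converts the normalised counts of each replicate to an apparent Kd. Each pool was mated in six replicate cultures.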

Variants are written as CDR1, CDR2 and CDR3 of the heavy chain (limits as in the source). Parent: GFTLNSYGIS, VIYSDGRRTFYGDSVK, GRAAGTFDS. Affinities are written as log10 Kd with Kd in nM; a lower number is a better binder. The mean shown is taken over the replicates in which the pair was detected. A pair that was not seen in any replicate is written "not detected"; this usually means weak binding, but a binder can also be missed. Three control strains display no target. For all heavy chain designs, 1% of the pairings with them gave a signal, with a median of 2.08 and one signal in twenty below 0.84, so weak values seen in few replicates may be background. Also given: how often the same scFv was detected with the empty control strains. The authors' rule: three or more of the six replicates give a measured affinity, fewer mean a poor binder. The range of this assay differs from that of the first round, and the authors advise against merging the two. Of ten entries with the parent sequence, four were seen in most replicates (averages 0.34 to 2.37), three in one and three in none, so single entries are noisy.

CDR-H1	CDR-H2	CDR-H3	group	mean, log10 nM	detected	empty controls
GFSLNSYGIS	VIYSDGRRTFYTDSVK	GRMAGTFDS	GPLM_Gen	0.52	6/6	1/18
GFTLNSYGIS	VIYSDGRRTKYDDSVK	GQLAGTFDS	Rand	not detected	0/6	0/18
GFDLNEYGIS	VIYADGQRTAYADDVK	GENAGTFDV	En_Gen	-0.14	6/6	0/18
GFSIDEYGIS	VIYADGVRTAVDPSVK	GQMAAFFDK	En_Gibbs	not detected	0/6	1/18
GFEIEEYGIS	VIYADGQRTSYADNVK	GKVDTVVMY	En_Gibbs	not detected	0/6	0/18
GFTLNSYGIS	VIYSDGRRTFYGDSFK	GRNAGTFDM	Ctrl	not detected	0/6	0/18
GFDLNEYGIS	VIYADGRRTFYTDSVK	GALAGTFDQ	En_HC	-0.63	6/6	0/18
GQSLEEYGIS	VIYADGFRTQYKDSVK	GKNVFDITV	En_Gibbs	not detected	0/6	0/18
WFDLNSYGIS	VIYSDGRRTFYGDSVK	GRQAGTFDS	GP_HC	not detected	0/6	0/18
GFTLNSYGIS	VIYSDGRRTFYGDSVK	GRAAGTFPL	Ctrl	not detected	0/6	0/18
GFELNSYGIS	VIYSDGRRTFYSDSVK	GKTAGTFDT	GP_Gen	0.20	6/6	0/18
GFDLNSYGIS	VIYSDGRRTFYEDSVK	GQAAGTFDS	GPLM_Gen	0.57	6/6	0/18
GFDLDEYGIS	VIYADGKRTAYTDSVK	GNVAGTFDM	En_Gen	-0.53	6/6	0/18
GFSLNSYGIS	VIYSDGRRTFYADSVK	GVVAGTFDS	GPLM_Gen	-0.62	6/6	0/18
GFDLNEYGIS	VIYADGRRTFYSDSVK	GTNGGTFDI	En_HC	-0.07	6/6	0/18
GFTLNEYGIS	VIYSDGRRTFYSDSVR	GRAALQFDS	Ctrl	2.87	1/6	0/18
GFTLDRYGIS	VIYSDGRRTFYGDSVK	GRTAGTFDS	GP_HC	0.57	6/6	0/18
GFDLEEYGIS	VIYADGKRTAYADSVK	GTNAGTFDV	En_Gen	0.81	6/6	0/18
GFDLNEYGIS	VIYADGRRTSYIDSVK	GNVAGTFDI	En_HC	-0.16	6/6	0/18
GFTLNSYGIS	VIYSDGRRLFYGDSVK	GRAAGTFDS	Ctrl	not detected	0/6	0/18
GMDLQEYGIS	VIYSDGVREAYTNDFK	GQIAGTIDL	En_Gibbs	not detected	0/6	0/18
GFSLNSYGIS	VIYSDGRRTFYTDSVK	GRAAGTFDS	GPLM_Gen	0.80	3/6	0/18
GFDLNEYGIS	VIYADGMRTAYADKVK	GETAGTFDV	En_Gen	-0.25	6/6	0/18
FQLLDDYGIS	VIYADGKRNAYVADVK	GNVAGTFDV	En_Gibbs	1.04	6/6	1/18
GFGLNSYGIS	VIYSDGRRTFYIDSVK	GRTAGTFDS	GPLM_Gen	1.20	5/6	1/18
GFTLDSYGIS	VIYSDGRRTFYGDSVK	GRAAGTFDY	Ctrl	1.44	6/6	0/18
GFDLDEYGIS	VIYADGVRTAYADSVK	GQNAGTFDI	En_Gen	-0.46	6/6	0/18
GYSLEEYGIS	VIYADGRRTAYADNVK	GMSGADGMF	En_Gibbs	3.78	1/6	0/18
GFTLNSYGIS	VIYSDGRRTFYCDSVK	GQLAGTFDS	GP_HC	2.37	2/6	0/18
GFNLDEYGIS	VIYADGRRTFYQDSVK	GEGAGTFDL	En_HC	1.59	2/6	0/18
GFTLNSYGDS	VIYADGRRTAYGQSVK	GDAAGTFDS	Ctrl	not detected	0/6	0/18
GFTLNEYGIS	VIYSDGRRTFYADSVK	GRFSGTFDS	Ctrl	1.41	6/6	0/18
GFDLNWYGIS	VIYSDGRRTFYIDSVK	GNAAGTFDS	GP_Gibbs	1.10	5/6	0/18
GFSIDEYGIS	VIYADGTRTAYIDNVK	GLIGMFCDI	En_Gibbs	not detected	0/6	0/18
GFTLNSYGIS	VIYSDGRRTFYIGSVK	GRAAGTFDS	Ctrl	not detected	0/6	0/18
GFDLNEYGIS	VIYADGRRTSYIDSVK	GNVAGTFDQ	En_HC	-0.52	6/6	0/18
GFDLNEYGIS	VIYADGKRTAYIDSVK	GENAGTFDL	En_Gen	2.35	5/6	0/18
GFHLNSYGIS	VIYSDGRRTFYGDSVK	GQEAGTFDT	GP_Gen	1.29	6/6	0/18
GFDLNEYGIS	VIYADGQRTAYTDSVK	GNVAGTFDT	En_Gen	-0.19	6/6	0/18
GEWLNSYGIS	VIYSDGVRTQYGDSVK	GRAAGTFDS	Ctrl	not detected	0/6	0/18
GFDLEEYGIS	VIYADGSRTSYQESVK	GLYIGMLDM	En_Gibbs	not detected	0/6	0/18
GFTLNSYGIS	VIYSDGRRTFYTDSVK	GQVAGTFDS	GPLM_HC	0.95	4/6	0/18
GFDLNEYGIS	VIYSDGRRTFYGDSVK	GQAAGTFDK	GP_Gen	0.18	6/6	1/18
EFDLNSYGIS	VIYSDGRRTFYADSVK	GRTAGTFDS	GP_Gen	0.53	6/6	0/18
GFDLNEYGIS	VIYADGKRTAYADKVK	GNVAGTFDI	En_Gen	-0.92	6/6	0/18
GEDLDEYGIS	VIYADGRRVVYQDQVK	GELAGTFAQ	En_Gibbs	not detected	0/6	0/18
GFTLNEYGIS	VIYSDGHRTFYTDSVK	GRFAGTFDS	GPLM_HC	-1.39	2/6	0/18
GFNLGEYGIS	VIYADGTRKGYANSVK	GAVHGFYLD	En_Gibbs	2.21	1/6	0/18
GFTLNSYGIS	VIYSDGRRTQYIDSVK	GQAAGTFDS	GPLM_HC	not detected	0/6	0/18
GFDIEEYGIS	VIYADGMRSSYSQSFK	GLQSGNISV	En_Gibbs	not detected	0/6	0/18
GFDLNEYGIS	VIYADGKRTFYADSVK	GETAGTFDQ	En_Gen	not detected	0/6	0/18
GFDLNEYGIS	VIYADGVRTAYADSVK	GNVAGTFDT	En_Gen	-0.56	6/6	1/18
GFTLDSYGIS	VIYSDGCRTFYGDSVK	GQIAGTFDS	Ctrl	1.78	6/6	0/18
GFDLNEYGIS	VIYADGRRQAYADSVK	GNNAGTFDV	En_Gen	-0.26	6/6	1/18
GFSLNEYGIS	VIYSDGRRTMYSDSVK	GRAAGTFDS	GP_HC	0.21	6/6	1/18
GFNLNSYGIS	VIYSDGRRTFYGDDVK	GRAAGHFNS	GP_HC	not detected	0/6	0/18
GFNLNSYGIS	VIYADGRRTFYVDSVK	GKAAGTFDS	GP_HC	0.03	6/6	0/18
GFTLNSYGIS	VIYSDGRRTFYIDSVK	GRAAGTFSL	Ctrl	not detected	0/6	0/18
GKSLDEYGIS	VIYADGMRTFYANTVK	GEDGGFLNQ	En_Gibbs	not detected	0/6	0/18
GFTLDSYGIS	VIYSDGRRTFYGDSIK	GRAAGTALS	Rand	not detected	0/6	0/18
GFTLNSYGIS	VIYSDGRRTAYDDSVK	GQTAGTFDS	GP_HC	0.18	6/6	0/18
GFTLNSYGIS	VIYSDGRRTAYGDRVK	GRAAGTFDS	Ctrl	1.37	3/6	0/18
GFDLNEYGIS	VIYADGRRTAYADSVK	GNQAGTFDM	En_Gen	0.29	4/6	0/18
GFTLNEYGIS	VIYSDGRRTFYGDSVK	GVFAGTFDS	GP_HC	0.86	6/6	0/18
TFTLNSYGIS	VIYSDGRRTFYRDSVK	GRAAGRFDL	Ctrl	2.29	1/6	0/18
GFTLNSYGIS	VIYSDGRRTFYTDSVK	GKQAGTFDS	GP_HC	0.81	6/6	0/18
GKSLDEYGIS	VIYADGMRVEYQNQVK	GTTVGDFFV	En_Gibbs	not detected	0/6	0/18
GVNLDEYGIS	VIYADGKRVHYTDKVK	GTFGDFGIV	En_Gibbs	not detected	0/6	0/18
GFNLNEYGIS	VIYADGMRTFYTDDVK	GEVAGTFDL	En_HC	0.26	6/6	0/18
GQDINEYGIS	VIYADGLRKAYSQQVK	GQNLGDVKD	En_Gibbs	not detected	0/6	0/18
GFTLNQYGIS	VIYSDGFRTFYSISVK	GRAKGFFDS	Rand	not detected	0/6	0/18
GFSLNSYGIS	VIYSDGRRTFYGDSFK	GYAAGTFDS	Ctrl	1.94	2/6	0/18
GFDLDEYGIS	VIYADGSRTVYADSVK	GENAGTFDV	En_Gen	0.11	6/6	1/18
GFDLNEYGIS	VIYADGRRTFYADSVK	GTFAGTFDV	En_HC	-0.58	6/6	0/18

Picked from the list: the 11 lowest averages where every replicate gave a value.

| CDR-H1 | CDR-H2 | CDR-H3 | group | mean, log10 nM | detected | empty controls |
|---|---|---|---|---|---|---|
| GFDLNEYGIS | VIYADGKRTAYADKVK | GNVAGTFDI | En_Gen | -0.92 | 6/6 | 0/18 |
| GFDLNEYGIS | VIYADGRRTFYTDSVK | GALAGTFDQ | En_HC | -0.63 | 6/6 | 0/18 |
| GFSLNSYGIS | VIYSDGRRTFYADSVK | GVVAGTFDS | GPLM_Gen | -0.62 | 6/6 | 0/18 |
| GFDLNEYGIS | VIYADGRRTFYADSVK | GTFAGTFDV | En_HC | -0.58 | 6/6 | 0/18 |
| GFDLNEYGIS | VIYADGVRTAYADSVK | GNVAGTFDT | En_Gen | -0.56 | 6/6 | 1/18 |
| GFDLDEYGIS | VIYADGKRTAYTDSVK | GNVAGTFDM | En_Gen | -0.53 | 6/6 | 0/18 |
| GFDLNEYGIS | VIYADGRRTSYIDSVK | GNVAGTFDQ | En_HC | -0.52 | 6/6 | 0/18 |
| GFDLDEYGIS | VIYADGVRTAYADSVK | GQNAGTFDI | En_Gen | -0.46 | 6/6 | 0/18 |
| GFDLNEYGIS | VIYADGRRQAYADSVK | GNNAGTFDV | En_Gen | -0.26 | 6/6 | 1/18 |
| GFDLNEYGIS | VIYADGMRTAYADKVK | GETAGTFDV | En_Gen | -0.25 | 6/6 | 0/18 |
| GFDLNEYGIS | VIYADGQRTAYTDSVK | GNVAGTFDT | En_Gen | -0.19 | 6/6 | 0/18 |

From the AlphaSeq antibody data of Li et al. 2023 (doi:10.1038/s41467-023-39022-2), copy in the FLAb collection.